In US8609647B2, “Nitrogen-containing spirocyclic compounds and pharmaceutical uses thereof” (Japan Tobacco Inc., priority 2009, dated 2013) one finds IC50 data, which are given here for nine compounds.

Chains of the proteins cited; added tags and fusions are not shown. Residues count along the entry.
UniProt P52333, 781-1124 limits assumed: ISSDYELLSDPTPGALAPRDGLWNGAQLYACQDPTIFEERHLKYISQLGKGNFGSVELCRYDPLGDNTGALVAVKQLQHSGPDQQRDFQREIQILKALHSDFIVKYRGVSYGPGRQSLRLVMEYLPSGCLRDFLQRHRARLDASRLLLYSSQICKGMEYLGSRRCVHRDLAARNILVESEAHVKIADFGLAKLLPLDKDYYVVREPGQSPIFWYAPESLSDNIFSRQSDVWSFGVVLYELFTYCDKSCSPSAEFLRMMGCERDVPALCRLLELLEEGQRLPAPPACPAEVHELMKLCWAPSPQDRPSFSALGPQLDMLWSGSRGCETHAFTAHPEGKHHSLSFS

The experiment deals with hJAK3 kinase domain (aa781-end) (Homo sapiens (Human), UniProt P52333). Description: JAK3 activity inhibition, kinase reaction (HTRF, TK substrate-biotin). The conditions noted are these: JAK3 IC50, 6His tag-fused hJAK3 kinase domain, 10 min at room temperature. In general terms: In TR-FRET formats the signal depends on donor and acceptor labels being close together.
As to `CC1CCN(C(=O)CC#N)C12CCN(c1ncnc3[nH]ccc13)C2` (single isomer, unassigned) [Compound 54], the IC50 (usually the concentration that gives 50% inhibition) was 5.9 nM.

In turn, `N#Cc1ccc(C(=O)N2CCCC23CCN(c2ncnc4[nH]ccc24)C3)cc1` (racemic) [Compound 65] yielded a half-inhibitory concentration (IC50) of 190 nM.

In turn, `COCCC(=O)N1CCCC12CCCN(c1ncnc3[nH]ccc13)C2` (racemic) [Compound 39] had an IC50 of 120 nM.

In the case of `N#CCCNC(=O)N1CCCC12CCCN(c1ncnc3[nH]ccc13)C2` (racemic) [Compound 58], the IC50 came to 31 nM.

In turn, `N#Cc1cccc(C(=O)N2CCCC23CCN(c2ncnc4[nH]ccc24)C3)c1` (racemic) [Compound 64] registered an IC50 of 180 nM.

Take `N#CCC(=O)N1CCCC12CCN(c1c(Cl)cnc3[nH]ncc13)C2` (racemic) [Compound 92]: the IC50 stood at 330 nM.

In the case of `CC1CCN(C(=O)CC#N)C12CCN(c1ncnc3[nH]ccc13)C2` (single isomer, unassigned) [Compound 66], the IC50 is 11 nM.

Take `CC1(C)CCN(C(=O)CC#N)C12CCN(c1ncnc3[nH]ccc13)C2` (racemic) [Compound 41]: half-maximal inhibition (IC50) required 90 nM.

The compound `N#CCC(=O)N1CCC(F)(F)C12CCN(c1ncnc3[nH]ccc13)C2` (racemic) [Compound 55] yielded an IC50 of 6.6 nM.
